The numbers were not newly measured in patent US10137085B2, “Nanoemulsion for transdermal delivery and method of making the same” (Nano and Advanced Materials Institute Limited, priority 2014, dated 2018), which cites them from elsewhere.

For this data set the following is noted: solid-in-oil nanodispersion compared to control.

insulin: the skin penetration entry is “could be enhanced”.
